Apparent affinities of Ab-95 variants for a coronavirus HR2 peptide

Target: peptide PDVDLGDISGINAS, taken from heptad repeat 2 (HR2) of SARS-CoV-2 spike.

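Phage display of a naive human antibody library on the peptide gave the parent. AAYL52 was designed without a model: most single CDR substitutions and a random sample of double and triple ones. Affinity was read by AlphaSeq, a pooled yeast mating assay with surface-displayed partners. Mating (16 h, 30 °C) was followed by selection of diploids and sequencing of their barcodes. The ratio of observed to expected reads was calibrated, replicate by replicate, on BCL2-family standards whose Kd was known from biolayer interferometry. Each pool was mated in three replicate cultures.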

Each scFv is VH, three GGGGS repeats, VL, as in the parent Ab-95, and differs from it in the CDRs of the light chain only.
VH: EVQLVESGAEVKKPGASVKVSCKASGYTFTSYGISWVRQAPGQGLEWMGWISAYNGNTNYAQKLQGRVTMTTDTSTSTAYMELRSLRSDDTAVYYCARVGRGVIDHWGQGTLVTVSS
VL: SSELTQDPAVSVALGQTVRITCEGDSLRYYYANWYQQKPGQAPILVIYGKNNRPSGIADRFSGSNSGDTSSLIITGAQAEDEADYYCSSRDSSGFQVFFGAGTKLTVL

Each variant's VL is given in full.
Affinities are written as log10 Kd with Kd in nM; a lower number is a better binder.
A mean of the replicates is given; it leaves out those without a signal.
"ND" marks a missing value. The strain was present, yet no cells mated with the target were sequenced in that replicate, which points to weak or no binding.
Empty control strains, which show no peptide, gave a signal in 28% of pairings with library AAYL52; the median was 3.91 and 95% of these signals were weaker than 2.90. No background was subtracted. The control count says in how many pairings with the empty strains this scFv gave a signal, with their mean in brackets.

VL,log10 Kd (nM) by replicate,"mean, log10 nM",control signals
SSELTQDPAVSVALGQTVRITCEGDSWRYYYANWYQQKPGQAPILVIYGKMNRPSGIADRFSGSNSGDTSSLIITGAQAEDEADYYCSSRDSSGFQVFFGAGTKLTVL,ND / 4.86 / ND,4.86,3/9 (3.70)
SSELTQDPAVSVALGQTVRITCEGDSLRYYSANWYQQKPGQAPILVIYGKNNEPSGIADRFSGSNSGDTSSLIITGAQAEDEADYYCHSRDSSGFQVFFGAGTKLTVL,3.35 / 2.72 / 3.00,3.02,0/9
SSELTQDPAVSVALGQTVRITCWGDSLRYRYANWYQQKPGQAPILVIYGKNNRPSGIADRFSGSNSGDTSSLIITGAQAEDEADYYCSNRDSSGFQVFFGAGTKLTVL,2.00 / 2.39 / 1.91,2.10,2/9 (3.67)
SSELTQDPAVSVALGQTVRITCEGDSKRYYGANWYQQKPGQAPILVIYGKNNRPSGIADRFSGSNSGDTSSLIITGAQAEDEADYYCSSIDSSGFQVFFGAGTKLTVL,2.45 / 4.87 / 3.91,3.74,0/9
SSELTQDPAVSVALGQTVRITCEGDSLMYYHANWYQQKPGQAPILVIYGKNNRPSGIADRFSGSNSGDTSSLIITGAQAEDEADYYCSSRDSSGFTVFFGAGTKLTVL,1.98 / 2.53 / 2.59,2.37,2/9 (3.40)
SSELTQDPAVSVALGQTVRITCEGDSLRYYYAAWYQQKPGQAPILVIYGKNNRPSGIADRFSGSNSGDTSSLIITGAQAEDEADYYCSVRTSSGFQVFFGAGTKLTVL,ND / ND / 4.19,4.19,3/9 (3.25)
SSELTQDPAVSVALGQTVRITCEGDSLRYYYANWYQQKPGQAPILVIYGKNNRSSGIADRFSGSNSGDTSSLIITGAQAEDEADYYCASWDSSGFQVFFGAGTKLTVL,3.71 / 3.28 / 2.83,3.28,0/9
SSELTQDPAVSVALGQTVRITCEGYSLRYYYANWYQQKPGQAPILVIYGKNNRPSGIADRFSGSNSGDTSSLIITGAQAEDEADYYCSSRDSSGFQIPFGAGTKLTVL,2.70 / 2.40 / 2.17,2.43,0/9
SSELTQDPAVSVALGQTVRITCEGDSPRYYYFNWYQQKPGQAPILVIYGKNNRPSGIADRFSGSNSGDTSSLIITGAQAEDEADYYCSSRDSSGFQCFFGAGTKLTVL,4.91 / ND / 4.28,4.59,2/9 (4.27)
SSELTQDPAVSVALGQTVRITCEGDSLRYYYANWYQQKPGQAPILVIYGKNNRPSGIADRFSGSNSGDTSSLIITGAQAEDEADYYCMSQDSSGFQSFFGAGTKLTVL,ND / ND / ND,ND,5/9 (3.77)
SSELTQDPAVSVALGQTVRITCERDSLRYYYANWYQQKPGQAPILVIYGKNCRPSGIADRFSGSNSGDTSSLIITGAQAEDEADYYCSSHDSSGFQVFFGAGTKLTVL,4.76 / ND / ND,4.76,1/9 (2.68)
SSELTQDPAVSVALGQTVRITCDGDSLRYYYANWYQQKPGQAPILVIYWKNFRPSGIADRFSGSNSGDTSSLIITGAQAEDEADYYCSSRDSSGFQVFFGAGTKLTVL,4.14 / 5.27 / 3.88,4.43,5/9 (4.55)
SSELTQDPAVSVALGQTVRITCEGDSLRYYFANWYQQKPGQAPILVIYGKNNDPSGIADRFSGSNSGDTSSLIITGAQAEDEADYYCSCRDSSGFQVFFGAGTKLTVL,4.62 / ND / 3.86,4.24,1/9 (3.74)
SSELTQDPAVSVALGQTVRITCEGDSLRLYYANWYQQKPGQAPILVIYGTNNRPSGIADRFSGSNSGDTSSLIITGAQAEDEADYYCISRDSSGFQVFFGAGTKLTVL,4.05 / 4.86 / 4.79,4.57,5/9 (4.50)
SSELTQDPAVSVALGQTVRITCEGDALRYYYANWYQQKPGQAPILVIYGKNNRPSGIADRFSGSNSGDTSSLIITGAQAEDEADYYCHSRDSSGFQKFFGAGTKLTVL,4.20 / 3.22 / ND,3.71,5/9 (4.08)
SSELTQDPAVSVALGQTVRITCEGKSLRYYYWNWYQQKPGQAPILVIYGKNNRPSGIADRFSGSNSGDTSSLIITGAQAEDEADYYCSSRDSSGFQCFFGAGTKLTVL,ND / 3.77 / ND,3.77,4/9 (4.60)
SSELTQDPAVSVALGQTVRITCLGDSLRYYYANWYQQKPGQAPILVIYGKNNFPSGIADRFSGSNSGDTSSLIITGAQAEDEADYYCSSRDVSGFQVFFGAGTKLTVL,ND / ND / ND,ND,2/9 (4.62)
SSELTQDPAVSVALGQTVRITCEGESLRYYYANWYQQKPGQAPILVIYGKNNRPKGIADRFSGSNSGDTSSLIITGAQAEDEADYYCSSLDSSGFQVFFGAGTKLTVL,3.15 / 2.82 / 2.26,2.74,3/9 (4.11)
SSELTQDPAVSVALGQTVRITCEPDSLIYYYANWYQQKPGQAPILVIYGKNNRPSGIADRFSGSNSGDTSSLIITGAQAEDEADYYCSSRDSSTFQVFFGAGTKLTVL,4.44 / 4.78 / ND,4.61,2/9 (3.87)
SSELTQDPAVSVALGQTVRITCEGDSLRYYEAQWYQQKPGQAPILVIYGKNNRPSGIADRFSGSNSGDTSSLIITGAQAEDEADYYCASRDSSGFQVFFGAGTKLTVL,1.76 / 1.70 / 1.18,1.55,5/9 (4.12)
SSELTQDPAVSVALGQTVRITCEGDSLREYYANWYQQKPGQAPILVIYGKCNRPSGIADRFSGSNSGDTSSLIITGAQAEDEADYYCNSRDSSGFQVFFGAGTKLTVL,3.75 / 3.61 / 3.68,3.68,3/9 (3.53)
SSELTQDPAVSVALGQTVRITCEGDSLRYQYANWYQQKPGQAPILVIYGKNNRPSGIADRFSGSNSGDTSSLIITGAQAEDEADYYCSLRDSSGFQVFFGAGTKLTVL,2.02 / 1.88 / 2.09,2.00,3/9 (4.65)
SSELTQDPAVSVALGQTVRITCMGSSLRYYYANWYQQKPGQAPILVIYGKNNRPSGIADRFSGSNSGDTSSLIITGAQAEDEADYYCSSRDSRGFQVFFGAGTKLTVL,2.72 / 2.65 / 2.43,2.60,6/9 (3.94)
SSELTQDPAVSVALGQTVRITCEGDSLRYYYANWYQQKPGQAPILVIYGKNNRPSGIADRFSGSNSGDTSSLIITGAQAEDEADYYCSSRVSSIFHVFFGAGTKLTVL,5.68 / 5.81 / 3.81,5.10,2/9 (4.56)
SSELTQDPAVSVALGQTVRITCEGDSLRYYYANWYQQKPGQAPILVIYGKVLRPSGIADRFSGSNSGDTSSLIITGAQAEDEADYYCSSRDSGGFQVFFGAGTKLTVL,3.21 / ND / 3.17,3.19,5/9 (4.14)

Repeated from above, the 4 best binders with a signal in all replicates:

VL,log10 Kd (nM) by replicate,"mean, log10 nM",control signals
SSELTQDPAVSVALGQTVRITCEGDSLRYYEAQWYQQKPGQAPILVIYGKNNRPSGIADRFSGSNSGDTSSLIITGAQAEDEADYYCASRDSSGFQVFFGAGTKLTVL,1.76 / 1.70 / 1.18,1.55,5/9 (4.12)
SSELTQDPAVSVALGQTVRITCEGDSLRYQYANWYQQKPGQAPILVIYGKNNRPSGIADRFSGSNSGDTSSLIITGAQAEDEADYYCSLRDSSGFQVFFGAGTKLTVL,2.02 / 1.88 / 2.09,2.00,3/9 (4.65)
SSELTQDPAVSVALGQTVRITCWGDSLRYRYANWYQQKPGQAPILVIYGKNNRPSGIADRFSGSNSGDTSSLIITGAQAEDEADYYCSNRDSSGFQVFFGAGTKLTVL,2.00 / 2.39 / 1.91,2.10,2/9 (3.67)
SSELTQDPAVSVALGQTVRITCEGDSLMYYHANWYQQKPGQAPILVIYGKNNRPSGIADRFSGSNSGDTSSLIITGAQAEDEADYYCSSRDSSGFTVFFGAGTKLTVL,1.98 / 2.53 / 2.59,2.37,2/9 (3.40)

Source: Engelhart et al. 2022 (doi:10.1038/s41597-022-01779-4), MIT Lincoln Laboratory and A-Alpha Bio; data file from the FLAb repository.